{"sequences": {"note": "Chains of the proteins cited; added tags and fusions are not shown. Residues count along the entry.", "UniProt Q15109, 23-344, stated change not applied": "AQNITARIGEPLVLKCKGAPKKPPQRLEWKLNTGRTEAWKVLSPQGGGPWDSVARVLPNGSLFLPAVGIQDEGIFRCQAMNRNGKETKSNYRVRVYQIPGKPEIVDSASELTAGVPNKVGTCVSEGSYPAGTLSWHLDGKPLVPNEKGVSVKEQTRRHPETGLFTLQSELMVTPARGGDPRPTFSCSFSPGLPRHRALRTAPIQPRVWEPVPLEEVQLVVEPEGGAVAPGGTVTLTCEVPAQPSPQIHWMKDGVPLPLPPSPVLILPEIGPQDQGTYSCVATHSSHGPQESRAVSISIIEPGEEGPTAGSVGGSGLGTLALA"}, "source": "patent US20100166775A1", "about": "(ACTIVE BIOTECH, published 2010)", "binders": {"B1": {"name": "hS100AB (other)", "alpha": "GSELETAMETLINVFHAHSGKEGDKYKLSKKELKELLQTELSGFLDAQKDVDAVDKVMKELDENGDGEVDFQEYVVLVAALTVACNNFFWENS", "beta": "SELEKAMVALIDVFHQYSGREGDKHKLKKSELKELINNELSHFLEEIKEQEVVDKVMETLDNDGDGECDFQEFMAFVAMVTTACHEFFEHE"}}, "target": "T1, recombinant human RAGE/Fc chimera (R&D Systems cat. No. 1145-RG) (human, UniProt Q15109 23-344)", "T1 construct": "Disulfide-linked homodimer expressed in NS0 cells, glycosylated and amine-coupled to a CM5 chip; also called rhRAGE-Fc; immobilized RAGE; not shown: peptide linker between RAGE and Fc; Fc region of human IgG1", "experiment": "SPR (Biacore), 200 nM protein over amine-coupled RAGE/Fc, 1 mM CaCl2 and 10 µM ZnCl2", "protocol": "Binding analysis was performed using the “surface plasmon resonance” (SPR) technology with a Biacore 3000™ system. This technology allows analysis of an interaction between proteins and small molecules in a real-time and label-free manner. A protein or low-molecular weight compound is injected over a surface (a CM5 sensor chip) with a covalently coupled ligand and the signal produced, expressed as resonance units (RU), is directly proportional to the number and mass of the molecule interacting with the ligand on the surface. Immobilization, regeneration scouting, surface performance tests and binding studies were conducted basically according to the instructions by the manufacturer. Kinetic evaluation of binding data was carried using the BIAevaluation Software Version 3.2 (Biacore AB). Optimization of conditions for immobilization and binding analysis is carried out for each interaction to be studied. […]\nRecombinant human RAGE was obtained from R&D Systems (cat. No. 1145-RG) as a fusion protein of the extracellular domain of RAGE, comprising a.a. […] The chimeric protein was expressed in the mouse myleoma cell line NSO as a disulfide-linked homo-dimeric protein with a calculated molecular mass of 61 kDa. […]"}
{"binder": "B1", "values": [{"measurement": "binding result", "value": "no binding (tested: 200 nM)"}]}
